# Measured values taken from patent US20090156561A1, “Use of Cholinesterase Inhibitors In Smoking Cessation” (published 2009).
# Test system: patient, habitual or occasional smoker, exposed to tobacco smoke
# Assay: Aiding smoking cessation in patients with reversible cholinesterase inhibitors, alone or combined (Examples 2, 4, 5, Comparative Example)
# Settings: for aid in smoking cessation by a single reversible cholinesterase inhibitor: single agent, general statement, dose not given
# [1] = Comparative Example, habitual smoker, 5 mg donepezil daily for one year
Compound,effect on bowel movements [1],smoking cessation outcome [1],aid in smoking cessation by a single reversible cholinesterase inhibitor
COc1cc2c(cc1OC)C(=O)C(CC1CCN(Cc3ccccc3)CC1)C2 (stereo not shown),moved their bowels more frequently,the effect was not strong enough to aid smoking cessation,does not appear to aid in smoking cessation programs
CCN(C)C(=O)Oc1cccc([C@H](C)N(C)C)c1,–,–,does not appear to aid in smoking cessation programs
